# Only a part is listed here, and it is no random draw. Some salts or complexes appear as unconnected parts, following the source record. Where a structure was tested more than once in an assay, its records may differ in their call. Activity calls are given as the source filed them. No stated cut-off is given here; in the data, active means growth inhibition above about 70%; inactive means the rest.
# Test: NCI Yeast Anticancer Drug Screen. Data for the mgt1 strain (AID 153)
# Settings: S. cerevisiae mgt1 mutant growth inhibition, hits give high values
# Protocol: Growth inhibition of yeast strains with defined genetic alterations is measured as a screen for potential anti-cancer activity. Selected strains with alterations in DNA damage repair or cell cycle control were exposed to compounds and growth inhibition was measured relative to vehicle treated controls. The strain used in this assay is mgt1
SMILES,growth inhibition (at 1.2 µM),growth inhibition (at 3.7 µM),growth inhibition (at 11.0 µM),growth inhibition (at 33.0 µM),growth inhibition (at 100.0 µM)
COc1ccccc1N.O=[N+]([O-])c1cc([N+](=O)[O-])cc([N+](=O)[O-])c1,inactive: -2%,inactive: 8%,inactive: 38%,active: 100%,active: 99%
Cc1c2ccccc2cc2ccccc12.O=[N+]([O-])c1cc([N+](=O)[O-])c(O)c([N+](=O)[O-])c1,inactive: -3%,inactive: -1%,inactive: 4%,inactive: 27%,active: 97%
[Au].[C-]#N.[C-]#N,inactive: -30%,inactive: -10%,inactive: -6%,inactive: 7%,inactive: 2%
O=[N+]([O-])C(F)(COCC(O)CO)[N+](=O)[O-] (stereo not given),inactive: -8%,inactive: -21%,inactive: -10%,inactive: 45%,active: 91%
Nc1ccccc1.O=[N+]([O-])c1cc([N+](=O)[O-])cc([N+](=O)[O-])c1,inactive: -3%,inactive: 1%,inactive: 25%,active: 99%,active: 99%
Cc1ccc2ccc3ccc4ccccc4c3c2c1.O=C1c2cc([N+](=O)[O-])ccc2-c2c1cc([N+](=O)[O-])cc2[N+](=O)[O-],inactive: -4%,inactive: 1%,inactive: 0%,inactive: 6%,inactive: 18%
Cc1cc2ccccc2cc1C.O=[N+]([O-])c1cc([N+](=O)[O-])cc([N+](=O)[O-])c1,inactive: -4%,inactive: -2%,inactive: 1%,inactive: 15%,active: 87%
